Results published in US10300036B2, “Compositions and methods for treating and preventing lung injury” (ARIZONA BOARD OF REGENTS on behalf of THE UNIVERSITY OF …, priority 2015, dated 2019).

Key:
[1] = tested on: KEAP1-mediated ubiquitination of NRF2; settings: for ubiquitination level of NRF2: H1299 cotransfected with NRF2 and HA-Ub, bixin 40 μM or SF 5 μM with MG132, 4 h, vs untreated control
[2] = tested on: NRF2 signaling pathway; assay: Pulmonary NRF2 signaling pathway activation after IP injection (IHC, immunoblot, RT-PCR of lung tissue); settings: Nrf2+/+ mice

## C[S+]([O-])CCCCN=C=S (stereo not shown) [SF, sulforaphane, reference compound]
[1]
  ubiquitination level of NRF2: decreased NRF2 ubquitination

## COC(=O)/C=C/C(C)=C\C=C\C(C)=C\C=C\C=C(C)\C=C\C=C(C)\C=C\C(=O)O [bixin, Bixin]
[2]; IP 200 mg/kg, 72 h, pilot study
  pulmonary protein levels of NRF2 and its target genes (Gclm and Hmox1), immunoblot: effective in upregulating
[2]; IP 200 mg/kg, bixin alone
  NRF2, HO-1 and GCLM protein levels in lungs (IHC): able to increase NRF2 protein levels
[2]; bixin alone or combined with ventilation
  NRF2, HO-1 and GCLM in lung total protein (immunoblot): can induce NRF2, HO-1 and GCLM
[1]; H1299, 40 μM with MG132, 4 h
  NRF2 ubiquitination, endogenous KEAP1 or exogenous KEAP1-WT: prevented the ubiquitination
[1]; H1299, KEAP1 siRNA plus KEAP1-C151S, 40 μM with MG132, 4 h
  NRF2 ubiquitination, KEAP1-C151S: had no effect
[1]
  ubiquitination level of NRF2: markedly reduced
